Measured values: publication PMC4338550 (Nature, 2014)

Target: rabbit ryanodine receptor RyR1 (rabbit, UniProt P11716)
Assay: cryo-EM structure

B1: glutathione-S-transferase (GST) fused FKBP12 (natural protein)
chain: not shown
- binding result: binds
